What was measured:
BRAF = molecular target: T1, BRAF (Homo sapiens, UniProt P15056); assay: Nanosyn kinase profiling; format: biochemical; conditions: read-out: Percentage inhibition
T1 construct: purchased Nanosyn (enzymatic panel); SGC in-house recombinant human kinases (DSF panel); Invitrogen (ALK1-6)
Description: (§1) Percentage inhibition was determined for each kinase at both 0.1 µM and 1 µM inhibitor concentration (supplemental Table S2). […]. […]. When visualized on a kinase phylogenetic tree, these were primarily clustered within the receptor tyrosine kinases (TKs) as well as the calmodulin-dependent kinases (CAMKs) (Figure 2C).
(§2) Inhibitor selectivity profiling against 200 human kinases at 0.1 and 1 µM inhibitor concentration was performed by Nanosyn (www.nanosyn.com).

Protein sequences, listed by entry. Tags and fused reporters are not part of them. Lines headed by an entry give the natural chain unless they say otherwise; changes in a name come on top. Residues count along the entry.
UniProt P15056, whole entry: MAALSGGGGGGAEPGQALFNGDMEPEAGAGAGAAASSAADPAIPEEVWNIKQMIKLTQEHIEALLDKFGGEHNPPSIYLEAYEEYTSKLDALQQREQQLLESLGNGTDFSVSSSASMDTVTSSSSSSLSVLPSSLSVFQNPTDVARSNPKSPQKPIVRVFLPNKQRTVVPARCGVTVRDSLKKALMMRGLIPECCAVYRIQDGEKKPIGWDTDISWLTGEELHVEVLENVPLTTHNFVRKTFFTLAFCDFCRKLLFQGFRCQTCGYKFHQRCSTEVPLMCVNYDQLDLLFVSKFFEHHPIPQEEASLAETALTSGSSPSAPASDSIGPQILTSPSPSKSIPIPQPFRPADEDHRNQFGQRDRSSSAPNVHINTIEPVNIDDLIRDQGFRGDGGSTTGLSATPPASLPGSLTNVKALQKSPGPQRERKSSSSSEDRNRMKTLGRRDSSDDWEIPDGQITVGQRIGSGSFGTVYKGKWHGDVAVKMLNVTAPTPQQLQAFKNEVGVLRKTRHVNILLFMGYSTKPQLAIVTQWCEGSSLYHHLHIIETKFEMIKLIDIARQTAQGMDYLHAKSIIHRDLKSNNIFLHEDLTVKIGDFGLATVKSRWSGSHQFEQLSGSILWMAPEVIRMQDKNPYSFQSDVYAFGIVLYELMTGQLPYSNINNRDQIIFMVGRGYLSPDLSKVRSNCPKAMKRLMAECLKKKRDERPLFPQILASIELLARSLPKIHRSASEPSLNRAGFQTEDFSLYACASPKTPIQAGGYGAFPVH
UniProt O95819: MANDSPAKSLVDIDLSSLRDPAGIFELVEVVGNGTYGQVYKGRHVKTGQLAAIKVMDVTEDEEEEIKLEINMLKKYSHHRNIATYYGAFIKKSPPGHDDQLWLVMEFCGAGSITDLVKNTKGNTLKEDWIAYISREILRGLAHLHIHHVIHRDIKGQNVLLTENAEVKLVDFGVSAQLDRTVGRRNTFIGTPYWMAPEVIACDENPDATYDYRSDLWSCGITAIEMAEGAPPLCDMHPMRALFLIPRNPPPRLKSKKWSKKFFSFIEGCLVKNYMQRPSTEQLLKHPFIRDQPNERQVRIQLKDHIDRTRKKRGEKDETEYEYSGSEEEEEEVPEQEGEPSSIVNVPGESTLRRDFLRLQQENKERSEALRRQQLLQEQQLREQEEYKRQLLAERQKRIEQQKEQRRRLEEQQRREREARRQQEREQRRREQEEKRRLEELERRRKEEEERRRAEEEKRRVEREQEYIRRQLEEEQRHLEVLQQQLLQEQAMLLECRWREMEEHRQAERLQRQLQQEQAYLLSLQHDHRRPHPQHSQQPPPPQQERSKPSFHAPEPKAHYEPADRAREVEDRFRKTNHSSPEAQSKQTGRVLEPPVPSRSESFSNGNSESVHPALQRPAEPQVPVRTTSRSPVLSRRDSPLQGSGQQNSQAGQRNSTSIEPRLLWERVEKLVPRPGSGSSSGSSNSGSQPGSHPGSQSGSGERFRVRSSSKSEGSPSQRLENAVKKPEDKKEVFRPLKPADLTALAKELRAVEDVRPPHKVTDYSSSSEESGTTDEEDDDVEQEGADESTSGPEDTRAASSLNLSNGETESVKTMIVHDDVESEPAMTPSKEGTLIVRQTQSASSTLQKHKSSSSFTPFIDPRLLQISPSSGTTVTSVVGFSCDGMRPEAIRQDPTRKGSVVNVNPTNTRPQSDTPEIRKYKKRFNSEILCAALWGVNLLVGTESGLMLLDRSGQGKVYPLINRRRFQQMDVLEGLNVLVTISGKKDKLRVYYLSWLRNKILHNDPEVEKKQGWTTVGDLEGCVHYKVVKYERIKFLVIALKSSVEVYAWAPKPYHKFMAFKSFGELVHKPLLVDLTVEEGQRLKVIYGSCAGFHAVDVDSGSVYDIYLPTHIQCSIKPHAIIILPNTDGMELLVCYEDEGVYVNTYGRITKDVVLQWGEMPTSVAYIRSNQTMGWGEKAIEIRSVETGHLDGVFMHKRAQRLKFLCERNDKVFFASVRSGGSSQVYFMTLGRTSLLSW
UniProt Q8N4C8: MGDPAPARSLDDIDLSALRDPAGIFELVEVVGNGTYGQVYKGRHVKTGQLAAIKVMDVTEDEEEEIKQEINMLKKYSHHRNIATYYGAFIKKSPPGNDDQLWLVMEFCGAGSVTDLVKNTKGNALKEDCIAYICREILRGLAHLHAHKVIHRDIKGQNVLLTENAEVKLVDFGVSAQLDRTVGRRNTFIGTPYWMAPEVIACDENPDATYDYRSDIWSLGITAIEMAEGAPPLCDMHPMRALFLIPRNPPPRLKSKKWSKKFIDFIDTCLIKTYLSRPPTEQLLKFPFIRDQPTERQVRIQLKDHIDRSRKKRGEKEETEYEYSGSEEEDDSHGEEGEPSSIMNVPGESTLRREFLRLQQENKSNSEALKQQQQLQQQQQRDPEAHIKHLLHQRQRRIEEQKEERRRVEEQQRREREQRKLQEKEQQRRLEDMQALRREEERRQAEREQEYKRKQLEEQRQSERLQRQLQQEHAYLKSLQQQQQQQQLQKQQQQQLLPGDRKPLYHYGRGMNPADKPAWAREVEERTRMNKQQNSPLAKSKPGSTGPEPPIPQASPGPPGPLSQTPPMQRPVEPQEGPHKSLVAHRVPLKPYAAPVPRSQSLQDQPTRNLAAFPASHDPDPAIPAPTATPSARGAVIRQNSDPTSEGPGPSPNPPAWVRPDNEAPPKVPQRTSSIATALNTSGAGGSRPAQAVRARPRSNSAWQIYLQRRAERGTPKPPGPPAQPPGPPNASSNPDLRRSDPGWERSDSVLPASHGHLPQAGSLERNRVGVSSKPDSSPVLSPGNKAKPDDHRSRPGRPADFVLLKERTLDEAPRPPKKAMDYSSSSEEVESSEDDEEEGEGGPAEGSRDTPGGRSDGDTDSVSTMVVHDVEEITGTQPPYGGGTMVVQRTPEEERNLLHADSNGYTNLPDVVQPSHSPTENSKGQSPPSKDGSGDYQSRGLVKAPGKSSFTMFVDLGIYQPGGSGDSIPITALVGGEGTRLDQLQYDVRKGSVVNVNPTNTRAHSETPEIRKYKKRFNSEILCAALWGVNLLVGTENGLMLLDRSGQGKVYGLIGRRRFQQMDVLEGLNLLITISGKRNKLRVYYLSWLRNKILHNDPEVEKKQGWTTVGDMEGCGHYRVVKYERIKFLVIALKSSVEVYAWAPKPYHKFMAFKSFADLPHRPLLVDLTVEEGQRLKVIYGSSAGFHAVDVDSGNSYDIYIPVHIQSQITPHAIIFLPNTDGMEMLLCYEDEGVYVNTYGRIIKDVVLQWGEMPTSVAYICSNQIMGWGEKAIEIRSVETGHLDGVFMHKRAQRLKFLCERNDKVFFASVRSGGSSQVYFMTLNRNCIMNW
UniProt P36888, 27-993: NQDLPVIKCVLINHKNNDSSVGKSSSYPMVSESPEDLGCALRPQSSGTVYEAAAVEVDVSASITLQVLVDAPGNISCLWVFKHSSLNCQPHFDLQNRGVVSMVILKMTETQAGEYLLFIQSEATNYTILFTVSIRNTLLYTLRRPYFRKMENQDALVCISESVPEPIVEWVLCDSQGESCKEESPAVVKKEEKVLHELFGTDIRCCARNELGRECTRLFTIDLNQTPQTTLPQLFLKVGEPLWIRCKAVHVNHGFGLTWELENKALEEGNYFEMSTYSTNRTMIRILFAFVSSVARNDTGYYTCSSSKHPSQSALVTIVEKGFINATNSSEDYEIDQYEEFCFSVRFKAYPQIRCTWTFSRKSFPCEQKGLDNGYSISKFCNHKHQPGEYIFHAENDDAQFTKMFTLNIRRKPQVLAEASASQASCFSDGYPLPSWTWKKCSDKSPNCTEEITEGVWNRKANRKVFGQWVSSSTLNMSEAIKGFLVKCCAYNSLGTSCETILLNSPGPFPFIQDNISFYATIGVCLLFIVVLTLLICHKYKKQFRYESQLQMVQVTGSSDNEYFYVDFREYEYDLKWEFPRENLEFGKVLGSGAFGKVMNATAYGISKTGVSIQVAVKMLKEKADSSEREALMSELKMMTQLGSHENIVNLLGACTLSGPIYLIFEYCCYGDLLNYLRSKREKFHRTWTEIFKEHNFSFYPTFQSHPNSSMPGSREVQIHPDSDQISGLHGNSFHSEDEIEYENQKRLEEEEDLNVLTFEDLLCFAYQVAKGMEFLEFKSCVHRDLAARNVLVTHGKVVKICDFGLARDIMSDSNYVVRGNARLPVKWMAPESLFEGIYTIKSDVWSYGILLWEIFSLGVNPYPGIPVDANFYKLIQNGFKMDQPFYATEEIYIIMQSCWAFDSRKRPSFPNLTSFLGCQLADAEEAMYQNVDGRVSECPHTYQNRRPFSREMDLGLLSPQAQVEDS
UniProt Q04771: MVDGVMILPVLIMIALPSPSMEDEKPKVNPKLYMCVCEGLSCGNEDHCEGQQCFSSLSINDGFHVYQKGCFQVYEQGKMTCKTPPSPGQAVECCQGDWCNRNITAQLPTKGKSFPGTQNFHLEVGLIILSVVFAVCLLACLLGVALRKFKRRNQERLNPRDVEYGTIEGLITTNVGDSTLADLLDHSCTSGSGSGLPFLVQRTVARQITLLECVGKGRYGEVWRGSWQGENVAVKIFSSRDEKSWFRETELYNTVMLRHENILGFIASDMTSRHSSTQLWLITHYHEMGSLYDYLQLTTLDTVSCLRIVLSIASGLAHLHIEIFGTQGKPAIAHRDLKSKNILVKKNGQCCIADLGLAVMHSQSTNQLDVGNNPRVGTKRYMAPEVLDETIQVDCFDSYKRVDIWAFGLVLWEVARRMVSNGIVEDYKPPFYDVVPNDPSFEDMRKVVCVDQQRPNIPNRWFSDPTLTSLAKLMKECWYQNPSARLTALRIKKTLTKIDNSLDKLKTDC
UniProt Q9UKE5: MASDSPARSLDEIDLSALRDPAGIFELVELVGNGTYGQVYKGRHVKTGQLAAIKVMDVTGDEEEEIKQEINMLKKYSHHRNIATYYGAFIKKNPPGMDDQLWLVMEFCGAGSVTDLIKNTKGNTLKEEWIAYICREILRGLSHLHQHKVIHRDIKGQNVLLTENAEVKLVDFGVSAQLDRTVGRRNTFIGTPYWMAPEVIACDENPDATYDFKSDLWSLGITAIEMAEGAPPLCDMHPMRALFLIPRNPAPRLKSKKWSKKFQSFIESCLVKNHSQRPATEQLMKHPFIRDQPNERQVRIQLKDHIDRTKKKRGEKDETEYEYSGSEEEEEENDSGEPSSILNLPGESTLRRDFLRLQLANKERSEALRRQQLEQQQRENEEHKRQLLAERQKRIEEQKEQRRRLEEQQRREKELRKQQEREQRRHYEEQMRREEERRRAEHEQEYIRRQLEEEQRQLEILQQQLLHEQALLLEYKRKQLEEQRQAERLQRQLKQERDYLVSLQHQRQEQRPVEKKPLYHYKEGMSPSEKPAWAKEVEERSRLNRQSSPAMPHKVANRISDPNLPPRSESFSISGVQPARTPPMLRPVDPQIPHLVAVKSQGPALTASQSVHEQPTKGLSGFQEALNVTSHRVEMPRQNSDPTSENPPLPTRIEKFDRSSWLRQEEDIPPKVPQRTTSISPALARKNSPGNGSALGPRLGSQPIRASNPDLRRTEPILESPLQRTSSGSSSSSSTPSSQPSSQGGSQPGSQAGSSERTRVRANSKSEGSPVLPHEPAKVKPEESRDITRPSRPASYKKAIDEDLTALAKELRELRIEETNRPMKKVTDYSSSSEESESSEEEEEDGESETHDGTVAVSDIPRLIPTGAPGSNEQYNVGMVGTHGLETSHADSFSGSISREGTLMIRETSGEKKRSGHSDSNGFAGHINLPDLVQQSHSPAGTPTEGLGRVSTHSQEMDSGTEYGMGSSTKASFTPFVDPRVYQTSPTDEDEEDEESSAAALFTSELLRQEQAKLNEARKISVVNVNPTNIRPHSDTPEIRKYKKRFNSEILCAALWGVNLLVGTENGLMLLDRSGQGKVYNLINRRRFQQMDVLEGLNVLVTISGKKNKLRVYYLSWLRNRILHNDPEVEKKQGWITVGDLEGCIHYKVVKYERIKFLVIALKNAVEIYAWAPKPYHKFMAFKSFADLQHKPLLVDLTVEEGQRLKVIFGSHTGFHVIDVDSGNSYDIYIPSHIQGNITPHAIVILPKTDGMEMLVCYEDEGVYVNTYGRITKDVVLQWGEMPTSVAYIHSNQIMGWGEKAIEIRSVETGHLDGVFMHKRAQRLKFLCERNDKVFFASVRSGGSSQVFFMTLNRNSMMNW

FMS = molecular target: T2, FMS (Homo sapiens, UniProt P07333); assay: Nanosyn kinase profiling; format: biochemical; conditions: read-out: Percentage inhibition
T2 construct: purchased Nanosyn (enzymatic panel); SGC in-house recombinant human kinases (DSF panel); Invitrogen (ALK1-6)
Description: as §1, §2

MAP4K4 = molecular target: T3, MAP4K4 (Homo sapiens, UniProt O95819); assay: Nanosyn kinase profiling; format: biochemical; conditions: read-out: Percentage inhibition
T3 construct: purchased Nanosyn (enzymatic panel); SGC in-house recombinant human kinases (DSF panel); Invitrogen (ALK1-6)
Description: as §1, §2

MINK = molecular target: T4, MINK (Homo sapiens, UniProt Q8N4C8); assay: Nanosyn kinase profiling; format: biochemical; conditions: read-out: Percentage inhibition
T4 construct: purchased Nanosyn (enzymatic panel); SGC in-house recombinant human kinases (DSF panel); Invitrogen (ALK1-6)
Description: as §1, §2

FLT3 = molecular target: T5, FLT3 (Homo sapiens, UniProt P36888); assay: Nanosyn kinase profiling; format: biochemical; conditions: read-out: Percentage inhibition
T5 construct: purchased Nanosyn (enzymatic panel); SGC in-house recombinant human kinases (DSF panel); Invitrogen (ALK1-6)
Description: as §1, §2

ALK2 = molecular target: T6, ALK2 (Homo sapiens, UniProt Q04771, Q207D); assay: DSF thermal shift; format: binding; conditions: 10 µM inhibitor; kinase domain 201–499 Q207D; read-out: Tm shift
T6 construct: purchased Nanosyn (enzymatic panel); SGC in-house recombinant human kinases (DSF panel); Invitrogen (ALK1-6)
T6 sequence (Q04771 201-499 Q207D): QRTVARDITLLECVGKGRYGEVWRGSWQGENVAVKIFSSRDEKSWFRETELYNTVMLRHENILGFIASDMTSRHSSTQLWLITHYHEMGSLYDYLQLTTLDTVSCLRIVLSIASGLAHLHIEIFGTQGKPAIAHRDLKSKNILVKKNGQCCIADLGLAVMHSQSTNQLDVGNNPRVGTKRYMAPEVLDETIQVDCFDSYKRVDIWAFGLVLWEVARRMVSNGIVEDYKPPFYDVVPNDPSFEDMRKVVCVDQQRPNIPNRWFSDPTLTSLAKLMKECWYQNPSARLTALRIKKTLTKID
Description: (§3) Thermal melting experiments were performed using a Real Time PCR machine Mx3005p (Stratagene) with a protein concentration of 1–2 µM and 10 µM inhibitor as described previously, [25]. […] Recombinant human kinases for DSF screening were prepared by SGC using published methods, [36].

BMPRII = molecular target: T7, BMPRII (Homo sapiens, UniProt Q13873); assay: DSF thermal shift; format: binding; conditions: read-out: Tm shift
T7 construct: purchased Nanosyn (enzymatic panel); SGC in-house recombinant human kinases (DSF panel); Invitrogen (ALK1-6)
T7 sequence (Q13873 27-1038): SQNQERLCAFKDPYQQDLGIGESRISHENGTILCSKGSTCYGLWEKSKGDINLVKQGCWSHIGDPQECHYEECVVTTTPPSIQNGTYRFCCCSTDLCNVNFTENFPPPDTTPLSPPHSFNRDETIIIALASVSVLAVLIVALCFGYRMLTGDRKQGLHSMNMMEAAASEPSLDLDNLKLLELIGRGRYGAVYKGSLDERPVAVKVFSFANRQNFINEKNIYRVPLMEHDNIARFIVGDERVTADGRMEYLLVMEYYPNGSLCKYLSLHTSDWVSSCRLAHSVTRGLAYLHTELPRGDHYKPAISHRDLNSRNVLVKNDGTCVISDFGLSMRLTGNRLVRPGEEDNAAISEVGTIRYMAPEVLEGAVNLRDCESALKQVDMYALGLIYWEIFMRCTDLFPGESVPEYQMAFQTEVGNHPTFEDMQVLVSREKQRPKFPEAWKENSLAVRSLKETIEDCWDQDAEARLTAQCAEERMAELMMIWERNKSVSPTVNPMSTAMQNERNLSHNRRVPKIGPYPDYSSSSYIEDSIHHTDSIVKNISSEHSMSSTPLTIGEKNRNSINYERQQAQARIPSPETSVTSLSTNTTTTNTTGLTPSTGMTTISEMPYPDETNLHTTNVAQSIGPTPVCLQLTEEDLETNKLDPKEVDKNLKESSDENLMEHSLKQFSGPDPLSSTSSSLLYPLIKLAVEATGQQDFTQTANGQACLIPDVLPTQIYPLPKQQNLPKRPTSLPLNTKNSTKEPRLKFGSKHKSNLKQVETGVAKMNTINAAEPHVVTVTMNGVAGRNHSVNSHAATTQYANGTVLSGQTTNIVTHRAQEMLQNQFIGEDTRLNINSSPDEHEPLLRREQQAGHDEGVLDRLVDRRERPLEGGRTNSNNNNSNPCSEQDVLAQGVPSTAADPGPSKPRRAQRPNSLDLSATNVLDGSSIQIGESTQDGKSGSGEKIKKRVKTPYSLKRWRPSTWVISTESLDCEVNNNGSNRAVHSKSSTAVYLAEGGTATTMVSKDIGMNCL
Description: as §3

ZAK = molecular target: T8, ZAK (Homo sapiens, UniProt Q9NYL2); assay: DSF thermal shift; format: binding; conditions: read-out: Tm shift
T8 construct: purchased Nanosyn (enzymatic panel); SGC in-house recombinant human kinases (DSF panel); Invitrogen (ALK1-6)
Description: as §3

ALK5 = molecular target: T9, ALK5 (Homo sapiens, UniProt P36897); assay: DSF thermal shift; format: binding; conditions: 10 µM inhibitor; read-out: Tm shift
T9 construct: purchased Nanosyn (enzymatic panel); SGC in-house recombinant human kinases (DSF panel); Invitrogen (ALK1-6)
T9 sequence (P36897 34-503): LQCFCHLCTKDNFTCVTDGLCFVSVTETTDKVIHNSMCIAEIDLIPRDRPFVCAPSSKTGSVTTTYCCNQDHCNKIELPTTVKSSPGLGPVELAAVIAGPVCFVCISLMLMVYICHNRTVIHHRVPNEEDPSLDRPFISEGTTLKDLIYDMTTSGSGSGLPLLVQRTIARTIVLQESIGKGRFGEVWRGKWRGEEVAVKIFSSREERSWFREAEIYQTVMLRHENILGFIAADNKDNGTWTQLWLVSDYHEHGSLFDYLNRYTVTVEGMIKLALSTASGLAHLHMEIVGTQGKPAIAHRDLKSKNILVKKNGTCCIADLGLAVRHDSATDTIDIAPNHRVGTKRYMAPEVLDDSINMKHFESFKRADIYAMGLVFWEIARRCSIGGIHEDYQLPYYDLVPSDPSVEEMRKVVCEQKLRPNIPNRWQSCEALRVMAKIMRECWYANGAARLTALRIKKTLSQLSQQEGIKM
Description: as §3

STK33 = molecular target: T10, STK33 (Homo sapiens, UniProt Q9BYT3); assay: DSF thermal shift; format: binding; conditions: 10 µM inhibitor; read-out: Tm shift
T10 construct: purchased Nanosyn (enzymatic panel); SGC in-house recombinant human kinases (DSF panel); Invitrogen (ALK1-6)
Description: as §3

TNIK = molecular target: T11, TNIK (Homo sapiens, UniProt Q9UKE5); assay: DSF thermal shift; format: binding; conditions: read-out: Tm shift
T11 construct: purchased Nanosyn (enzymatic panel); SGC in-house recombinant human kinases (DSF panel); Invitrogen (ALK1-6)
Description: as §3

c1ccc2c(-c3cnn4cc(-c5ccc(N6CCNCC6)cc5)cnc34)ccnc2c1 [LDN-193189]
inhibition at 0.1 µM (BRAF): 3.5%
inhibition at 1 µM (BRAF): 5.2%
inhibition at 0.1 µM (FMS): 3.7%
inhibition at 1 µM (FMS): 26%
inhibition at 0.1 µM (MAP4K4): 31%
inhibition at 1 µM (MAP4K4): 81%
inhibition at 0.1 µM (MINK): 26%
inhibition at 1 µM (MINK): 71%
inhibition at 0.1 µM (FLT3): 3.4%
inhibition at 1 µM (FLT3): 12%
ΔTm at 10 µM (ALK2): 14.3 °C
ΔTm at 10 µM (BMPRII): -0.4 °C
ΔTm at 10 µM (ZAK): 2.7 °C
ΔTm at 10 µM (ALK5): 12 °C
ΔTm at 10 µM (STK33): 6.5 °C
ΔTm at 10 µM (TNIK): 4.6 °C

Reference: publication PMC3639963, “A New Class of Small Molecule Inhibitor of BMP Signaling” (PLoS ONE, 2013)
